Assay results reported in paper PMC9691367, “The PROTAC selectively degrading Bcl-xL represents a novel Hedgehog pathway inhibitor with capacity of combating resistance to Smoothened inhibitors while sparing bone growth” (Theranostics, 2022).

Sequences of proteins named here, by UniProt entry; tags and fusion partners are left off.
UniProt P10415, whole entry, species assumed: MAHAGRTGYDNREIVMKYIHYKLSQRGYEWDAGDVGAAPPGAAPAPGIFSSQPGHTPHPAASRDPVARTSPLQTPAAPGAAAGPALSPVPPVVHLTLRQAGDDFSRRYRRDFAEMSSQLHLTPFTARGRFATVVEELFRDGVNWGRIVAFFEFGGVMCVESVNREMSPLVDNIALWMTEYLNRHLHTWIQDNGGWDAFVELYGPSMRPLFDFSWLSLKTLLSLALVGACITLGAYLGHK

Molecular target: Bcl-2 (Homo sapiens, UniProt P10415)
Assay: Competitive fluorescence polarization assay, Bcl-2 / FAM-Bax
Assay type: binding
Conditions: Bcl-2 100 nM, FAM-Bax 5 nM
Method: Competitive fluorescence polarization assays were carried out in black-walled plates in assay buffer (20 mM Na2HPO4 ·12H2O, 20 mM NaH2PO4·12H2O, 1 mM EDTA, 50 mM NaCl, 0.05% PF-68). The use of protein/peptide probe pairs was as follows: Bcl-xL (5 nM) and FAM-Bad (5 nM), Bcl-2 (100 nM) and FAM-Bax (5 nM), Mcl-1 (100 nM) and FAM-Bim (5 nM). Assay buffer, proteins, drugs, and peptides were added to the assay plates sequentially. The assay plates were slightly shaken for 3 min and incubated for 30 min at room temperature. The fluorescence polarization was measured on a Synergy 2 reader (BioTek).

Ki: 1.95 ± 1.14 nM
Compound: CC1(C)CCC(c2ccc(Cl)cc2)=C(CN2CCN(c3ccc(C(=O)NS(=O)(=O)c4ccc(N[C@H](CCN5CCOCC5)CSc5ccccc5)c(S(=O)(=O)C(F)(F)F)c4)cc3)CC2)C1 [ABT-263, reference compound]
